The list is not random: actives were taken first. Their share in the collection is about 3.7%.
miR-21 reporter – raises the signal of a miR-21 reporter | HeLa miR-21 FLuc reporter, luciferase, 48 h | Potency, µM (highest dose often 38.3 µM), inactives show at the highest dose reporter change, positive = more light | 340,000 tested, under 10 active | AID 2288; active = well fitted rising curve with a large enough effect; inconclusive = small, poorly fitted or top-dose-only effect; inactive = no such curve, though single readings can be large or run the other way;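 note: % of control where 0% means no effect; miR-21 action dims this reporter so a rising signal means less miR-21 action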
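HeLa miR-21-FLuc reporter line, endogenous miR-21; 2000 cells/well in DMEM/10% FBS; compound titration up to ~40uM final, 48 h, 37 degree Celsius; luciferase detection reagent, 15 min lysis, CCD luminescence.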
ClpP mod – qHTS Assay for Activators of ClpP | ATP-dependent Clp protease proteolytic subunit (Bacillus subtilis (strain 168)), P80244 | purified B. subtilis ClpP, FRET peptide cleavage, 20 min | Potency, µM (highest dose often 57.5 µM), without a hit: at the top dose activity change, negative = active | hit rate 1.9% among 340,000; active means well fitted falling curve with a large enough effect; inconclusive means small, poorly fitted or top-dose-only effect; inactive means no such curve, though single readings can be large or run the other way; further: potency means the concentration at half of the fitted maximal effect; the source files actives as falling curves though it sought activators and does not explain the sign; nearly all actives have a fitted effect of over 65% in size
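ClpP 10 microg/mL final, pH 8 Tris/KCl buffer with BSA, glycerol, Tween-20; compound pinned in; FRET-FV substrate; RT 20 min; Ex320/Em430; ΔFRET vs ADEP 5.8 microM, DMSO, no enzyme.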
A549 tox – A549 cytotoxicity, counter-screen for Nrf2 inhibitors; A549 ARE-Fluc cells, CellTiter-Fluor viability, 18-24 h; Potency, µM (highest dose often 46 µM), without a hit: at the top dose activity change, negative = cytotoxicity, usual class: inhibitors; hit rate 0.16% among 390,000; AID 504648; further: potency means the concentration at half of the fitted maximal effect; on the % scale 0 is the no-effect control and ±100 the full control effect
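Cytotoxicity counterscreen: CellTiter-Fluor fluorescence was measured in A549 ARE_Fluc cells after 18-24 h of compound exposure in a concentration series. The subsequent BugLite luminescent read reports ARE-luciferase activity.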
Nrf2 activator – Nrf2 pathway activation | Potency, µM (top dose mostly 46.1 µM), inactives show top-dose activation, hits mostly activators | AID 624171 | hit rate 0.31% among 410,000 | AREc32 ARE-luciferase reporter (MCF7-derived line), luminescence, 24 h; further: potency means the concentration at half of the fitted maximal effect; % of control where 0% means no effect; nearly all actives have a fitted effect of over 65% in size
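ARE activation measured as luciferase luminescence (Steady-Glo, 30 min RT) in AREc32_Fluc cells after 24 hr compound exposure at 37 deg C, 5% CO2; cells seeded overnight at 1000/well in OPTI-MEM, 5% FBS.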
Nrf2 inh – inhibitors of Nrf2 signaling | A549 ARE-Fluc reporter, luciferase luminescence, 18-24 h | Potency, µM (doses to about 46 µM), without a hit: at the top dose activity change, negative = inhibition, usual class: inhibitors | hit rate 2.1% among 360,000 | AID 504444; further: potency means the concentration at half of the fitted maximal effect; on the % scale 0 is the no-effect control and ±100 the full control effect; nearly all actives have a fitted effect of over 60% in size
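A549 ARE_Fluc cells, 5000/well, 5% FBS OPTI-MEM; compounds in dose-response, 18-24 h at 37 °C/5% CO2; CellTiter-Fluor viability read (Ex 405/Em 525), then BugLite luciferase luminescence = Nrf2 activity.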
p53 reactivator – re-activators of mutant p53; hit rate 0.063% among 320,000; AID 504706; H1299 p53-A138V BP100-luciferase reporter, luminescence, 24 h; Potency, µM (top dose mostly 92.2 µM), for the others: top-dose activity change, positive = activation, most hits filed as activators; further: potency means the concentration at half of the fitted maximal effect; % of control where 0% means no effect; nearly all actives have a fitted effect of over 45% in size
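H1299 (p53-null), stable ts p53-A138V + BP100-Luc; 1000 cells/well, Opti-MEM/10% FBS; cpd 4 pt, 1:5; 24 h, 37 deg C, 5% CO2; detection reagent 10 min RT; luminescence.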
Active calls of the source: *; [ ] = remark or other dose. Unless noted, the call rests on the fitted dose curve; in most records, active means well fitted curve in the direction sought with a large enough effect; inconclusive means small, poorly fitted or top-dose-only effect, or another doubt; inactive means no such curve, though single readings can be large; an effect the other way counts as inactive or inconclusive.

`CC1(c2nnc(-c3ccc(Cl)cc3)o2)CC(c2ccc([N+](=O)[O-])cc2)=NO1` (stereo not given) gave miR-21 reporter 1%, ClpP mod 1%, A549 tox 6%, Nrf2 activator -1%, Nrf2 inh 0% and p53 reactivator 3%.
For CC1(c2nnc(-c3ccccc3)o2)CC(c2c(Cl)cccc2Cl)=NO1 (stereo not given) the results were ClpP mod -1%, A549 tox -15%, Nrf2 activator 0% and Nrf2 inh 23µM*.
For Brc1cccc[n+]1CCC[n+]1ccccc1Br the results were ClpP mod -4%.
O=c1oc2ccccc2cc1-c1nc2c(s1)CCCC2 was read as miR-21 reporter -28%, ClpP mod 35µM*, A549 tox 29%, Nrf2 activator 9%, Nrf2 inh inconclusive and p53 reactivator 113%.
Screening O=c1oc2ccccc2cc1-c1nc2ccccc2o1 returned miR-21 reporter -37%, ClpP mod 31%, A549 tox 6%, Nrf2 activator inconclusive, Nrf2 inh 7% and p53 reactivator 12%.
Screening O=C(NC1CCCCC1)C(c1cc2ccccc2o1)N1CCOCC1 (stereo not given) returned ClpP mod 0% and Nrf2 activator 0%.
CC[n+]1c(C)sc2c3ccsc3ccc21 was read as miR-21 reporter 1%, ClpP mod -3%, A549 tox 1%, Nrf2 activator 3%, Nrf2 inh 6% and p53 reactivator 9%.
Screening CCN1/C(=C/c2ccc3cc(C)ccc3[n+]2CC)Sc2ccc3sccc3c21 returned ClpP mod -2%, A549 tox inconclusive, Nrf2 activator -1% and Nrf2 inh 6.5µM*.
For CCn1cc([N+](=O)[O-])c(C(=O)Nc2nc(-c3ccc(C)c(C)c3)c(C)s2)n1 the results were miR-21 reporter -4%, ClpP mod 0%, A549 tox -13%[1.84 µM], Nrf2 activator inconclusive, Nrf2 inh 16µM* and p53 reactivator -6%.
For O=C(Nc1ccc2c(c1)OCO2)N1CCN(c2cccc(C(F)(F)F)c2)CC1 the results were miR-21 reporter -4%, ClpP mod -3%, A549 tox -22%, Nrf2 activator 0%, Nrf2 inh 23µM* and p53 reactivator 8%.
`COc1ccc(N2CCN(C(=O)Nc3cccc(C(F)(F)F)c3)CC2)cc1` gave miR-21 reporter 2%, ClpP mod -16%, A549 tox -18%, Nrf2 activator 0%, Nrf2 inh 21µM* and p53 reactivator -6%.
`CN1CCN(C(=S)c2ccc(OCC(=O)Nc3cccc(C(F)(F)F)c3)cc2)CC1` gave miR-21 reporter 14%, ClpP mod -1%, A549 tox -9%, Nrf2 activator 3%, Nrf2 inh 15µM* and p53 reactivator -8%.
`O=C(c1ccc2c(c1)OCO2)N1CCN(c2cccc(C(F)(F)F)c2)CC1` gave miR-21 reporter 20%, ClpP mod -2%, A549 tox -8%, Nrf2 activator 0%, Nrf2 inh -25% and p53 reactivator -4%.
Screening Cc1cc(N2CCCC2)ccc1NC(=O)COc1cccc(C(F)(F)F)c1 returned miR-21 reporter 14%, ClpP mod 0%, A549 tox -20%, Nrf2 activator -1%, Nrf2 inh 5.8µM* and p53 reactivator -12%.
Screening O=C(COc1ccccc1)Nc1cc(C(F)(F)F)ccc1N1CCCC1 returned miR-21 reporter 2%, ClpP mod 1%, A549 tox -10%, Nrf2 activator 3%, Nrf2 inh inconclusive and p53 reactivator 5%.

Reprinted from the part before: four compounds, followed by the next part.
`CN1CCN(C(=S)c2ccc(OCC(=O)Nc3cccc(C(F)(F)F)c3)cc2)CC1` gave miR-21 reporter 14%, ClpP mod -1%, A549 tox -9%, Nrf2 activator 3%, Nrf2 inh 15µM* and p53 reactivator -8%.
`O=C(c1ccc2c(c1)OCO2)N1CCN(c2cccc(C(F)(F)F)c2)CC1` gave miR-21 reporter 20%, ClpP mod -2%, A549 tox -8%, Nrf2 activator 0%, Nrf2 inh -25% and p53 reactivator -4%.
Screening Cc1cc(N2CCCC2)ccc1NC(=O)COc1cccc(C(F)(F)F)c1 returned miR-21 reporter 14%, ClpP mod 0%, A549 tox -20%, Nrf2 activator -1%, Nrf2 inh 5.8µM* and p53 reactivator -12%.
Screening O=C(COc1ccccc1)Nc1cc(C(F)(F)F)ccc1N1CCCC1 returned miR-21 reporter 2%, ClpP mod 1%, A549 tox -10%, Nrf2 activator 3%, Nrf2 inh inconclusive and p53 reactivator 5%.
For O=C(COc1ccc(C(=O)O)cc1)Nc1cccc(C(F)(F)F)c1 the results were miR-21 reporter -10%, A549 tox 6%, Nrf2 activator -1%, Nrf2 inh -12% and p53 reactivator -7%.
CC(=O)Nc1ccc2nc(-c3cc(C)ccc3C)[nH]c2c1 was read as miR-21 reporter -8%, ClpP mod 4%, A549 tox 0%, Nrf2 activator 4% and Nrf2 inh 27%.
For CC(=O)Nc1ccc2nc(-c3ccccn3)[nH]c2c1 the results were miR-21 reporter -26%, ClpP mod 11µM*, A549 tox -4%, Nrf2 activator 0%, Nrf2 inh 22% and p53 reactivator 18%.
For CC(=O)Nc1ccc2nc(-c3ccncc3)[nH]c2c1 the results were miR-21 reporter 1%, ClpP mod 25µM*, A549 tox -7%, Nrf2 activator 0%, Nrf2 inh 25% and p53 reactivator -1%.
For COc1ccc(OCC(=O)NCc2ccc3c(c2)CCN3C(=O)c2cccc(C)c2)cc1 the results were miR-21 reporter inconclusive, ClpP mod 0%, A549 tox -14% and Nrf2 activator 0%.
Screening Cc1ccccc1CN1[C@H]2CCCC[C@@H]2OCCS1(=O)=O returned ClpP mod -3%.
For COC(=O)c1cc(C(=O)OCC(=O)Nc2ccccc2OC(F)F)cc([N+](=O)[O-])c1 the results were miR-21 reporter -7%, ClpP mod 28µM*, A549 tox 3%, Nrf2 activator 0%, Nrf2 inh -5% and p53 reactivator -7%.
`NC(=O)Nc1ccc(C(=O)OCC(=O)Nc2ccc([N+](=O)[O-])cc2C(F)(F)F)cc1` gave miR-21 reporter -6%, ClpP mod 0%, A549 tox 0%, Nrf2 activator 0%, Nrf2 inh -22% and p53 reactivator 15%.
Screening Nc1ccc(C(=O)OCC(=O)Nc2ccc([N+](=O)[O-])cc2C(F)(F)F)cc1 returned miR-21 reporter -14%, ClpP mod 22µM*, A549 tox 5%, Nrf2 activator 1%, Nrf2 inh -5% and p53 reactivator -8%.
Screening CCOc1ccccc1NC(=O)COC(=O)c1cc(C(=O)OC)cc([N+](=O)[O-])c1 returned miR-21 reporter -2%, ClpP mod -1%, A549 tox -2%, Nrf2 activator 0%, Nrf2 inh -10% and p53 reactivator -1%.
Screening CSc1ccc(Cl)c(C(=O)OCC(=O)Nc2ccccc2OC(F)F)c1 returned miR-21 reporter -6%, ClpP mod 28µM*, A549 tox -1%, Nrf2 activator 2%, Nrf2 inh 5% and p53 reactivator -4%.
Screening COc1ccc(NC(=O)COC(=O)c2cc(SC)ccc2Cl)c(OC)c1 returned miR-21 reporter 0%, ClpP mod 0%, A549 tox 5%, Nrf2 activator 0%, Nrf2 inh inconclusive and p53 reactivator 0%.

Screening results as filed in PubChem BioAssay.
